Chains of the proteins cited; added tags and fusions are not shown.
UniProt Q15858, whole entry: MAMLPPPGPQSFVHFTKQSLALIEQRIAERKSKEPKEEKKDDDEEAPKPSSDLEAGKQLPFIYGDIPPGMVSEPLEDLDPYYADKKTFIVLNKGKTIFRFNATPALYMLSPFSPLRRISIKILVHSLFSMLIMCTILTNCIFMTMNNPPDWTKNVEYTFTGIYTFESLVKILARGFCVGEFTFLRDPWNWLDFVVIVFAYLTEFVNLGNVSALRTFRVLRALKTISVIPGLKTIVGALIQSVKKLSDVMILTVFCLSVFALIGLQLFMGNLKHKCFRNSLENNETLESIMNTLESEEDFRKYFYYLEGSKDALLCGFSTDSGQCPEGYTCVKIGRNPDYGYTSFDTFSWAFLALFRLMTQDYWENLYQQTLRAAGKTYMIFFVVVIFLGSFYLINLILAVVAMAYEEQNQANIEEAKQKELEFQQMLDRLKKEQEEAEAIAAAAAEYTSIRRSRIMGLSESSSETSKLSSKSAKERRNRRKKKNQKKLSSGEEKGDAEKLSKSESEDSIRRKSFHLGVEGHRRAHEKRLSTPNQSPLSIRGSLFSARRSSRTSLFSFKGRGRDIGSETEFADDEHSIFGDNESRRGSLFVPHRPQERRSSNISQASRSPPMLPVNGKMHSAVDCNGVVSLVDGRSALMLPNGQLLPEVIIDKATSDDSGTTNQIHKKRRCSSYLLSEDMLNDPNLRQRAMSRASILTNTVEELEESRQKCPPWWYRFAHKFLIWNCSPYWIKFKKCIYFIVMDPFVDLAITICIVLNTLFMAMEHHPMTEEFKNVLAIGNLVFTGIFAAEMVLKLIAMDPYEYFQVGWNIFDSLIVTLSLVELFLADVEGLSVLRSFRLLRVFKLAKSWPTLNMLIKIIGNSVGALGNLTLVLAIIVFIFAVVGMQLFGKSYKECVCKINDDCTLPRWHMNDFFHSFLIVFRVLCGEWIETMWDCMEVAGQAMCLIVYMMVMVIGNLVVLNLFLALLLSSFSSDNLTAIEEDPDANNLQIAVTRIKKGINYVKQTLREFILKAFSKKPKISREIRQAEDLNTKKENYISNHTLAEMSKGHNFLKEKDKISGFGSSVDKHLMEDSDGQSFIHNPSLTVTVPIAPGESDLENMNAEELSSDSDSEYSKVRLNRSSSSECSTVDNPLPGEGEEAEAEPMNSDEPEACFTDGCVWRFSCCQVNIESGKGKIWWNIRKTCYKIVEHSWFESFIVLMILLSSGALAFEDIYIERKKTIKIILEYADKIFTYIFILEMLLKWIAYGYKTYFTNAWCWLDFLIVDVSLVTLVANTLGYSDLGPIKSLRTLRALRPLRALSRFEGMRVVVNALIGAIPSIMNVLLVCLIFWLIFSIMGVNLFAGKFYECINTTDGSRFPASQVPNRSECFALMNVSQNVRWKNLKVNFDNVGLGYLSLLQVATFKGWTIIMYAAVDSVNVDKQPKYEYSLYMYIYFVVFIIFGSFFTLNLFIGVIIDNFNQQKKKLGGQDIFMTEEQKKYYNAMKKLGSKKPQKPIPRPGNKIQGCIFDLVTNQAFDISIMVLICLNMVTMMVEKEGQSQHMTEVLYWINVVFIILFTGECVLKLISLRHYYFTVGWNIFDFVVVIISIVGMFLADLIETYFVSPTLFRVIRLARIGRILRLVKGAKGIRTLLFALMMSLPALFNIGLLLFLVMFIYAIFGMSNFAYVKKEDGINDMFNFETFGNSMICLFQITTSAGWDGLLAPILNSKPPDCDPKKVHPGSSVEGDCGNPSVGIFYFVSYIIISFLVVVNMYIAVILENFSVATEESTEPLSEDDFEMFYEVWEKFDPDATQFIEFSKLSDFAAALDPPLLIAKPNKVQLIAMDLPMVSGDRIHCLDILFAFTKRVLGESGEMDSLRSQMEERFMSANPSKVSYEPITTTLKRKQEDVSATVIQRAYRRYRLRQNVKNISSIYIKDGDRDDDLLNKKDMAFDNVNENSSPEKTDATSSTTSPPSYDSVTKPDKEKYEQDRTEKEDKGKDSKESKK

In BindingDB's records for patent US10836758 (BRISTOL-MYERS SQUIBB COMPANY, 2020):

Biological target: Sodium channel protein type 9 subunit alpha (Homo sapiens, UniProt Q15858)
Assay: cell-based
Conditions: IC50 (nM)

| IC50 [nM] | Compound |
| --- | --- |
| 164 | NC1CCC(CCNc2cc(F)c(S(=O)(=O)Nc3nccs3)cc2Cl)(c2ccccc2)CC1 (configuration not stated) [US10836758, Example 55] |
| 9 | NC1CCC(CCNc2cc(F)c(S(=O)(=O)Nc3nccs3)cc2Cl)(c2ccccc2)CC1 (configuration not stated) [US10836758, Example 54] |
